Values after ≈ are worked out from the molar mass of the structure shown. Where two headings read alike, the source gives them in different places.
How the values were obtained:
human EP2 receptors = target: T1, human EP2 receptors (Homo sapiens, UniProt P43116); assay: cell-based cAMP TR-FRET assay, rightward shift of PGE2 concentration response curve (Schild KB), EP2
T1 construct: expressed in transfected cells

Chains of the proteins cited; added tags and fusions are not shown. Lines headed by an entry give the natural chain unless they say otherwise; changes in a name come on top.
UniProt P43116: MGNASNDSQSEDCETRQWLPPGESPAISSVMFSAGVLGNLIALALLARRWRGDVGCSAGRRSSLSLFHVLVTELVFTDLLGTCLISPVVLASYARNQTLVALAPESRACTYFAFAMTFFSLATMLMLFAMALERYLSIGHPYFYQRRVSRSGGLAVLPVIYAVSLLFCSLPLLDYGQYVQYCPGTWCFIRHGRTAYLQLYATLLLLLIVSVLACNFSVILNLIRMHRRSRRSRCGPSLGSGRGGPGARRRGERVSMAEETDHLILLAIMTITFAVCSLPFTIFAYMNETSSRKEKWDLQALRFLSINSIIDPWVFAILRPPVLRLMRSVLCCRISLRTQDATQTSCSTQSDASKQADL
UniProt P43119: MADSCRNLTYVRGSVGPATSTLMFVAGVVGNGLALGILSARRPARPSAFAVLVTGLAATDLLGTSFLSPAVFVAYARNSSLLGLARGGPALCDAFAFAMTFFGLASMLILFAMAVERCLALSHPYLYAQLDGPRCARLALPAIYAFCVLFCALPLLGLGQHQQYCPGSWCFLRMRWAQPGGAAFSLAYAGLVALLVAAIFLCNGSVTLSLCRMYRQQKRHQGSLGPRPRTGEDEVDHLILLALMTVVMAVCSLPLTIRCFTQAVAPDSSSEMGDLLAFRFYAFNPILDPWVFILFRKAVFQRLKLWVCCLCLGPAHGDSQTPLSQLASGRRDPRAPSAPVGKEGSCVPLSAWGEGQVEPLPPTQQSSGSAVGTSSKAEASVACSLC

human DP1 receptors = target: T2, human DP1 receptors (Homo sapiens, UniProt Q13258); assay: cell-based cAMP TR-FRET assay, DP1 (agonist BW245C)
T2 construct: expressed in transfected cells
T2 sequence (Q13258 1-359): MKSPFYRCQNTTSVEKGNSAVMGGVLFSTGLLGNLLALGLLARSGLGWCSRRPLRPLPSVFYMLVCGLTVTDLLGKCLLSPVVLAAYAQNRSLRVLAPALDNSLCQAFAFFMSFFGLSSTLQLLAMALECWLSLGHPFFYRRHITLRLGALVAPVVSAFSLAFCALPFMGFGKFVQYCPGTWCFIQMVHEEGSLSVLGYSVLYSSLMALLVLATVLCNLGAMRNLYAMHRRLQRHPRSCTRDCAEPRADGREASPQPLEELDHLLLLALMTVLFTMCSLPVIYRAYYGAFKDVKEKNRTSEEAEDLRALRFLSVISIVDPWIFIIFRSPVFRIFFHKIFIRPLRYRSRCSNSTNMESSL
Protocol: The synthesis was carried out starting from commercially available 2-methyl indole or 2-trifluoromethyl indoles (11a-c), which on treatment with bromoacetonitrile provided intermediates (12a-c), which then were subjected to lithium aluminum hydride to reduce cyanide to amines. […] Synthesized derivatives were tested by using a cAMP-derived TR-FRET assay, at single concentration (1 μM) to observe a rightward shift of PGE2 (an EP2 agonist) concentration response curve in a C6G cell line that overexpresses human EP2 receptors.
Intracellular cAMP was measured with a cell-based homogeneous time-resolved fluorescence resonance energy transfer (TR-FRET) method (Cisbio Bioassays). […] Endogenous cAMP produced by cells competes with labeled cAMP for binding to the cAMP antibody and thus reduces the FRET signal. Cells stably expressing human DP1, EP2, EP4, or IP receptors were seeded into 384-well plates in 30 μl complete medium (4,000 cells/well) and grown overnight. The medium was carefully withdrawn and 10 μl Hanks' Buffered Salt Solution (HBSS) (Hyclone) containing 20 μM rolipram was added into the wells to block phosphodiesterases. The cells were incubated at room temperature for 0.5-1 h and then treated with vehicle or test compound for 10 min before addition of increasing concentrations of appropriate agonist: BW245C for DP1, PGE2 for EP2 and EP4, or iloprost for IP. The cells were incubated at room temperature for 40 min, then lysed in 10 μl lysis buffer containing the FRET acceptor cAMP-d2 and 1 min later another 10 μl lysis buffer with anti-cAMP-Cryptate was added. […] The FRET signal was expressed as: F665/F590×10^4.

human IP receptors = target: T3, human IP receptors (Homo sapiens, UniProt P43119); assay: cell-based cAMP TR-FRET assay, IP (agonist iloprost)
T3 construct: expressed in transfected cells
Protocol: These derivatives were selected for testing against EP4 and IP receptors. Cell lines were created that overexpress EP4 receptors, or IP receptors on C6-glioma cells. A cAMP-derived TR-FRET assay was developed using agonists PGE2 (for EP4) and iloprost (for IP), similar to EP2 assay.
Intracellular cAMP was measured with a cell-based homogeneous time-resolved fluorescence resonance energy transfer (TR-FRET) method (Cisbio Bioassays). […] Endogenous cAMP produced by cells competes with labeled cAMP for binding to the cAMP antibody and thus reduces the FRET signal. Cells stably expressing human DP1, EP2, EP4, or IP receptors were seeded into 384-well plates in 30 μl complete medium (4,000 cells/well) and grown overnight. The medium was carefully withdrawn and 10 μl Hanks' Buffered Salt Solution (HBSS) (Hyclone) containing 20 μM rolipram was added into the wells to block phosphodiesterases. The cells were incubated at room temperature for 0.5-1 h and then treated with vehicle or test compound for 10 min before addition of increasing concentrations of appropriate agonist: BW245C for DP1, PGE2 for EP2 and EP4, or iloprost for IP. The cells were incubated at room temperature for 40 min, then lysed in 10 μl lysis buffer containing the FRET acceptor cAMP-d2 and 1 min later another 10 μl lysis buffer with anti-cAMP-Cryptate was added. After 60-90 min incubation at room temperature, the FRET signal was measured by an Envision 2103 Multilabel Plate Reader (PerkinElmer Life Sciences) with a laser excitation at 337 nm and dual emissions at 665 nm and 590 nm for d2 and Cryptate (50 s delay), respectively. The FRET signal was expressed as: F665/F590×10^4.

C6-glioma cells = settings: rat
[1] = 1 h
[2] = pH 7.4
[3] = mouse, in vivo
[4] = aqueous solubility by nephelometry; settings: parents 15a / 15d as stated

Row | Compound | Kb (human EP2 receptors; read-out: EP2 KB) [nM] | Kb (human DP1 receptors) [nM] | SI (DP1/EP2) (human DP1 receptors) | Kb (human EP2 receptors; read-out: KB EP2) [nM] | Kb (human IP receptors) [nM] | other results
1 | COc1cc(/C=C/C(=O)NCCn2c(C)cc3ccccc32)cc(OC)c1OCCN(C)C [Compound 16k] | 84.5 | 752 | 8.9 | – | – | –
2 | Cc1cc2ccccc2n1CCNC(=O)/C=C/c1ccc(OCCCN(C)C)cc1 [Compound 16l] | 74.6 | 283 | 3.8 | – | – | –
3 | COc1cc(/C=C/C(=O)NCCn2c(C(F)(F)F)cc3ccccc32)cc(OC)c1OC [Compound 15d, (E)-N-(2-(2-(Trifluoromethyl)-1H-indol-1-yl)ethyl)-3-(3,4,5-trimethoxyphenyl)acrylamide] | 17.8 | 166 | – | 17.8 | 8450 | CC50 (C6-glioma cells): 81000 nM; % remaining at 60 minutes in mouse liver microsomes [1]: 2%; Solubility [2]: 27 µM (≈ 12.1 µg/mL); C-max ([3]; ip, 5 mg/kg): 115 ± 303 ng/mL; C-max ([3]; po, 10 mg/kg): 248 ± 61 ng/mL; T1/2 (plasma) ([3]; po, 10 mg/kg): 1.8 h
4 | Cc1cc2ccccc2n1CCNC(=O)/C=C/c1ccc(OCCCO)cc1 [Compound 16e] | – | 67.1 | – | – | 210000 | –
5 | CCN(CC)c1ccc(C(=O)NCCn2ccc3ccccc32)cc1 [Compound 6l] | – | – | – | – | – | Kb (human EP2 receptors; Table 1, Schild KB from single antagonist concentration 1 μM, average of 2-3 measurements in duplicate, read-out: EP2 KB): 62.9 nM
6 | Cc1[nH]c2ccccc2c1CCNC(=O)/C=C/c1ccc(OCCO)c(OCCO)c1 [Compound 16c, (E)-3-(3,4-bis(2-hydroxyethoxy)phenyl)-N-(2-(2-methyl-1H-indol-3-yl)ethyl)acrylamide] | – | 7450 | – | 41.1 | 240000 | Kb (human EP2 receptors; read-out: Schild KB from Schild regression): 47.1 nM
7 | Cc1cc2ccccc2n1CCNC(=O)/C=C/c1ccc(OCCO)c(OCCO)c1 [Compound 16a, (E)-3-(3,4-bis(2-hydroxyethoxy)phenyl)-N-(2-(2-methyl-1H-indol-1-yl)ethyl)acrylamide] | – | – | – | – | 1570 | –
8 | O=C(/C=C/c1ccc(OCCO)c(OCCO)c1)NCCn1c(C(F)(F)F)cc2ccccc21 [Compound 16b] | 260 | 2820 | 10 | – | – | fold higher aqueous solubility in comparison to parent compound [4]: 2.5 fold
9 | COc1cc(/C=C/C(=O)NCCn2c(C)cc3ccccc32)cc(OC)c1OC [Compound 15a] | 2.4 | 34.5 | – | 2.4 | 62000 | –
10 | Cc1cc2ccccc2n1CCNC(=O)/C=C/c1ccc(OCCN(C)C)cc1 [Compound 16m] | 137 | 265 | 2 | – | – | –

Reference: patent publication US11077120B2, “Prostaglandin receptor EP2 antagonists, derivatives, compositions, and uses related thereto” (Emory University, priority 2014, dated 2021)
